From ChEMBL document CHEMBL1949664, “Epiminocyclohepta[b]indole analogs as 5-HT6 antagonists” (Bioorg Med Chem Lett, 2012) come the findings set out here.

Protein sequences, listed by entry. Tags and fused reporters are not part of them.
UniProt P50406, whole entry: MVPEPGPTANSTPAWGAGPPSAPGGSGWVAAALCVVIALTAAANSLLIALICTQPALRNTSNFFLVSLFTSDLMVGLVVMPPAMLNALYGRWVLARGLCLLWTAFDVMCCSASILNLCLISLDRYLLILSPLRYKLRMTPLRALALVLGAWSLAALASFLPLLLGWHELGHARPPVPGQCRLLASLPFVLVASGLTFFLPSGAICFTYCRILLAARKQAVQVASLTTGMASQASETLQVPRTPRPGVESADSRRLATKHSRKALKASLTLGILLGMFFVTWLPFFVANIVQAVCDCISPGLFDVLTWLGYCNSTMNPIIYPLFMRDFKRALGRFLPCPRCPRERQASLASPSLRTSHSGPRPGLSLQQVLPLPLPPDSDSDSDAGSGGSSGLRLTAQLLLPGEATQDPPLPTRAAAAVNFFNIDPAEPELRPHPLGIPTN

The target of data set [1] is T1, 5-hydroxytryptamine receptor 6 (Homo sapiens, UniProt P50406). In words: Antagonist activity at human 5-HT6 serotonin receptor expressed in CHO-1 cells assessed as inhibition of 5-hydroxytryptamine-induced cAMP production. It is filed as functional, cell-based. The essentials: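 CHO-1 cells expressing human 5-HT6; cAMP production measured under 30 nM 5-HT challenge (EC80), relative to EC80 control wells. Ten concentrations in duplicate; IC50 converted to Kb by modified Cheng–Prusoff. Means of at least two determinations.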
In general terms: cAMP levels reflect the balance of adenylyl cyclase and phosphodiesterase activity.

A short description of data set [2]: (§1) Efflux ratio of permeability from basolateral to apical side over apical to basolateral side in human Caco2 cells. It is filed as ADME, cell-based. Conditions: caco-2. In outline: (§2)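 Caco-2 monolayers; basolateral-to-apical flux divided by apical-to-basolateral flux.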
For orientation: Passage across Caco-2 layers is used to estimate intestinal permeability.

For data set [3], the target named is T1, 5-hydroxytryptamine receptor 6. In words: Displacement of [3H]LSD from human 5-HT6 serotonin receptor by scintillation proximity assay. In outline: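 SPA with human 5-HT6 receptor membranes (2.5 µg/well), 10 nM [N-methyl-3H]-LSD, WGA SPA beads, in 50 mM Tris-HCl pH 7.5, 5 mM MgCl2, 1 mM EDTA, 4% DMSO final. Ten competitor concentrations in duplicate; IC50 from specific binding, Ki by Cheng–Prusoff. Means of at least two determinations.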

The test system of data set [4] is Caco-2. Described as §1. It is filed as ADME, cell-based. In outline:
as §2

The Kb is the affinity of an antagonist, worked out from how it opposes an agonist. Take `Cn1c2c(c3cc(S(=O)(=O)c4cccc(C(F)(F)F)c4)ccc31)C1CCC(C2)N1` (single isomer, unassigned; (-)) [listing 1 of 2 here]: the Kb in data set [1] worked out at 15 nM. For orientation: efflux ratio means a quotient of directional permeabilities that is used to spot active efflux. Take `Cn1c2c(c3cc(S(=O)(=O)c4ccc5[nH]ccc5c4)ccc31)C1CCC(C2)N1` (single isomer, unassigned; (-)) [listing 1 of 2 here]: in data set [2], the efflux ratio came to 40.

One may read the Ki as the dissociation constant of the complex between target and ligand, obtained from inhibition or displacement. Low readings indicate tighter binding, high ones weaker binding. `Cn1c2c(c3cc(S(=O)(=O)c4csc5ccccc45)ccc31)C1CCC(C2)N1` (racemic) displayed a Ki in data set [3] of 0.33 nM. The same measure, in the same setting: the figure for `Cn1c2c(c3cc(S(=O)(=O)c4ccccc4)ccc31)C1CCC(C2)N1` (single isomer, unassigned; (+)) [listing 1 of 2 here] is 9.6 nM.

Consider `Cn1c2c(c3cc(S(=O)(=O)c4ccc5[nH]ccc5c4)ccc31)C1CCC(C2)N1` (single isomer, unassigned; (+)), for which the Kb in data set [1] came out at 1.5 nM.

Take `Cn1c2c(c3cc(S(=O)(=O)c4cccc(OC(F)(F)F)c4)ccc31)C1CCC(C2)N1` (racemic): the Ki in data set [3] is 7.2 nM.

For the compound `Cn1c2c(c3cc(S(=O)(=O)c4csc5ccccc45)ccc31)C1CCC(C2)N1` (single isomer, unassigned; (-)) [listing 1 of 2 here], the efflux ratio in data set [2] was found to be 3.7. With `Cn1c2c(c3cc(S(=O)(=O)c4cccc(C(F)(F)F)c4)ccc31)C1CCC(C2)N1` (racemic), the inhibition constant (Ki) in data set [3] stood at 2.4 nM. As to `Cn1c2c(c3cc(S(=O)(=O)c4cccc(C(F)(F)F)c4)ccc31)C1CCC(C2)N1` (single isomer, unassigned; (-)) [listing 2 of 2 here], the affinity in data set [3] corresponds to a Ki of 3.7 nM. For the same compound, the efflux ratio in data set [2] amounted to 2.8. As to `Cn1c2c(c3cc(S(=O)(=O)c4ccccc4)ccc31)C1CCC(C2)N1` (single isomer, unassigned; (+)) [listing 2 of 2 here], the Kb in data set [1] was determined as 3.9 nM. On the same count and under the same terms, as for `Cn1c2c(c3cc(S(=O)(=O)c4c[nH]c5ccccc45)ccc31)C1CCC(C2)N1` (single isomer, unassigned; (-)) [listing 1 of 2 here], the figure is 2.8 nM. `Cn1c2c(c3cc(S(=O)(=O)c4cccc(C(F)(F)F)c4)ccc31)C1CCC(C2)N1` (single isomer, unassigned; (+)) [listing 1 of 2 here] gave an inhibitory constant (Ki) in data set [3] of 1.5 nM. Besides, the Ratio in data set [4] is given as 1.8. Turning to `Cn1c2c(c3cc(S(=O)(=O)n4ccc5ccccc54)ccc31)C1CCC(C2)N1` (single isomer, unassigned; (+)) [listing 1 of 2 here], the Ratio in data set [4] was found to be 1.9. For `Cn1c2c(c3cc(S(=O)(=O)n4ccc5ccccc54)ccc31)C1CCC(C2)N1` (single isomer, unassigned; (+)) [listing 2 of 2 here], the Kb in data set [1] is 9.7 nM. The compound `Cn1c2c(c3cc(S(=O)(=O)c4ccccc4)ccc31)C1CCC(C2)N1` (single isomer, unassigned; (-)) [listing 1 of 2 here] had a Ki in data set [3] of 15 nM. In the case of `Cn1c2c(c3cc(S(=O)(=O)n4ccc5ccccc54)ccc31)C1CCC(C2)N1` (single isomer, unassigned; (-)) [listing 1 of 2 here], the Kb in data set [1] amounted to 10 nM. Compound `Cn1c2c(c3cc(S(=O)(=O)c4csc5ccccc45)ccc31)C1CCC(C2)N1` (single isomer, unassigned) [listing 1 of 2 here] registered a Ki in data set [3] of 0.28 nM. The Ratio in data set [4] amounted to 2.8. For the compound `Cn1c2c(c3cc(S(=O)(=O)c4csc5ccccc45)ccc31)C1CCC(C2)N1` (single isomer, unassigned; (-)) [listing 2 of 2 here], in data set [1], the antagonist dissociation constant (Kb) amounted to 3.4 nM.

For the compound `Cn1c2c(c3cc(S(=O)(=O)n4ccc5ccccc54)ccc31)C1CCC(C2)N1` (single isomer, unassigned; (-)) [listing 2 of 2 here], in data set [2], the efflux ratio was 2.2.

Consider `Cn1c2c(c3cc(S(=O)(=O)c4c[nH]c5ccccc45)ccc31)C1CCC(C2)N1` (single isomer, unassigned; (-)) [listing 2 of 2 here], for which the Ratio in data set [4] turned out to be 2.5. In data set [3], `Cn1c2c(c3cc(S(=O)(=O)c4ccccc4)ccc31)C1CCC(C2)N1` (racemic) registered an inhibition constant Ki of 8.2 nM. Consider `Cn1c2c(c3cc(S(=O)(=O)c4ccccc4)ccc31)C1CCC(C2)N1` (single isomer, unassigned; (-)) [listing 2 of 2 here], for which the antagonist equilibrium constant (Kb) in data set [1] was determined as 11 nM.

Consider `Cn1c2c(c3cc(S(=O)(=O)c4cccc(C(F)(F)F)c4)ccc31)C1CCC(C2)N1` (single isomer, unassigned; (+)) [listing 2 of 2 here], for which the Kb in data set [1] was determined as 12 nM. For the compound `Cn1c2c(c3cc(S(=O)(=O)c4c[nH]c5ccccc45)ccc31)C1CCC(C2)N1` (single isomer, unassigned; (+)) [listing 1 of 2 here], the Ratio in data set [4] worked out at 8.5.

In the case of `Cn1c2c(c3cc(S(=O)(=O)c4c[nH]c5ccccc45)ccc31)C1CCC(C2)N1` (single isomer, unassigned; (+)) [listing 2 of 2 here], the Kb in data set [1] stood at 2.6 nM. Same read-out and setting: the figure for `Cn1c2c(c3cc(S(=O)(=O)c4csc5ccccc45)ccc31)C1CCC(C2)N1` (single isomer, unassigned) [listing 2 of 2 here] is 2.5 nM; for `Cn1c2c(c3cc(S(=O)(=O)c4ccc5[nH]ccc5c4)ccc31)C1CCC(C2)N1` (single isomer, unassigned; (-)) [listing 2 of 2 here] it is 1.6 nM.
